Source: patent US12329745B2, “Methods and compositions for treating glucocorticoid excess” (Sparrow Pharmaceuticals, Inc., priority 2022, dated 2025)

Sequences of proteins named here, by UniProt entry; tags and fusion partners are left off. A change or cut given only in a name is not applied to a line headed by its entry.
UniProt P28845: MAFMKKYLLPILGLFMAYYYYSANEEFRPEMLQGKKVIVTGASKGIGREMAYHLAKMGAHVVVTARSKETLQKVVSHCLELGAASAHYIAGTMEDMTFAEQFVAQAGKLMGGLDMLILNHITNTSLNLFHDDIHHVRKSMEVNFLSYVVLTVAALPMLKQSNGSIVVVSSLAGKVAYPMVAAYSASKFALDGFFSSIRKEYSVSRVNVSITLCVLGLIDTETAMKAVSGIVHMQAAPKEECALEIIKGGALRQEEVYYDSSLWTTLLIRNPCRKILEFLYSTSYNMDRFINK

Molecular target: HSD-1 (Homo sapiens, UniProt P28845)
Test: Surface plasmon resonance binding kinetics in presence of NADPH (residence time)
Details: 300 μM NADPH; reciprocal of the dissociation rate constant
From the text: Pseudo-irreversible HSD-1 inhibitors can be identified via in vitro enzyme kinetics evaluation, in which they are expected to show longer enzyme residence times compared to other HSD-1 inhibitors. Surface plasmon resonance (SPR) is the resonant oscillation of conduction electrons at the interface between negative and positive permittivity material stimulated by incident light. When a protein is bound to a surface, SPR can be used to detect ligand binding to the protein. […] Association and dissociation of test compounds were monitored in the presence of 300 µM NADPH throughout the experiment.

## BVT-2733
  Residence Time: 65 s
